B1: Rebif: IFN-b-1 a (Rebif™), immunomodulatory drug for MS (protein, UniProt P01574 22-187, looked up)
Interferon beta: MSYNLLGFLQRSSNFQCQKLLWQLNGRLEYCLKDRMNFDIPEEIKQLQQFQKEDAALTIYEMLQNIFAIFRQDSSSTGWNETIVENLLANVYHQINHLKTVLEEKLEKEDFTRGKLMSSLHLKRYYGRILHYLKAKEYSHCAWTIVRVEILRNFYFINRLTGYLRN
modifications: interferon beta-1a
notes: IFN-b-1 a (Rebif™), immunomodulatory drug for MS

What was measured:
[1] = healthy volunteers, IM administration of 6 MIU; cited from earlier work
[2] = tested on: mitogen-induced PBMC TNF-α production; conditions: healthy volunteers, cited from earlier work
[3] = tested on: TNF-α secretion of MOG stimulated PBMC; assay: In-vitro TNF-α secretion in PBMC culture with immunomodulatory drug (IDMM, ELISA); format: cell-based, human; conditions: 40 U/ml
From the text: All immunomodulatory drugs used for the treatment of MS patients are known to reduce pro-inflammatory cytokine production and specifically TNF-α. For example, the secretion of TNF-α in a short-term peripheral blood mononuclear cell (PBMC) culture is inhibited by the presence of an immunomodulatory drug. In order to design a method for comparing immunomodulatory drugs for the treatment of MS, PBMCs were specifically stimulated by an MS autoantigen, the encephalitogenic peptide, myelin oligodendrocyte glycoprotein (MOG) so as to induce over-expression of autoreactive cells specific for MS.
As various immunomodulatory drugs are formulated differently and are delivered by different routes of administration, appropriate drug concentrations were established for the IDMM. The in-vitro concentration for each drug was calculated according to the serum levels acquired after in-vivo injections or according to functional equivalent tests. The drug concentrations used in the IDDM are provided below in Table 1.
15 cc of blood was withdrawn from each patient. […]
Following a 48 hour incubation, TNF-α levels were measured in the supernatants by ELISA using commercial kits (R&D).

| Molecule | mean serum activities [1] | suppression of mitogen-induced PBMC TNF-α production ([2]; 6 MIU three times per week) | inhibition of mitogen-induced PBMC TNF-α production ([2]; an injection of 6 MIU (22 μg), dependent on the mitogen) | suppression of TNF-α secretion [3] |
| --- | --- | --- | --- | --- |
| Avonex: IFN-b-1a (Avonex™), immunomodulatory drug for MS | 25 U/ml |  |  |  |
| B1 |  | 29-38% | 8-13% | 29-38% |

From US20100150868A1, “Methods of Individually Optimizing Treatment for an Inflammation Associated Disease” (Tel HaShomer Medical Research Infrastructure and Services …, priority 2005, published 2010)
